Key:
[1] = biological target: T1, Serine/threonine-protein kinase Chk1 (Homo sapiens, UniProt O14757)
T1 sequence (O14757 whole entry): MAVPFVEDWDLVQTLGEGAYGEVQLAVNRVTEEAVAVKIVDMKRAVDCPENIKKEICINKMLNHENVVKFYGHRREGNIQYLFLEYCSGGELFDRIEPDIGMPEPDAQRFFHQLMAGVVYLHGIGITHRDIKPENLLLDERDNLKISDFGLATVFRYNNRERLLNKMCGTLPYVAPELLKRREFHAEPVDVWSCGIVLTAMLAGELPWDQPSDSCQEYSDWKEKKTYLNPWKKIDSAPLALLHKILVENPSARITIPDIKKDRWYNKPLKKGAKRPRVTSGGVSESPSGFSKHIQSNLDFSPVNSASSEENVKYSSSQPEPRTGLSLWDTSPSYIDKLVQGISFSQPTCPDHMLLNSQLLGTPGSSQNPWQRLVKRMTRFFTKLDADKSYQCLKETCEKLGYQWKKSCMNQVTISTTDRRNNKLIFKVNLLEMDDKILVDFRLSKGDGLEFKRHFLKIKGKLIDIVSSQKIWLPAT

[2] = Selectivity ratio of IC50 for CHK2 to IC50 for CHK1

| IC50 [1] | Ratio IC50 [2] | SMILES |
| --- | --- | --- |
| 0.7 µM | 8 | NC[C@@H]1CN(c2c(-c3ccccc3)cnc3[nH]ncc23)CCO1 |
| 0.89 µM | – | NCC1CN(c2c(-c3ccccc3)cnc3[nH]ncc23)CCO1 (racemic) |
| 0.86 µM | – | NC[C@H]1CN(c2c(-c3ccccc3)cnc3[nH]ncc23)CCO1 |

Reference: ChEMBL document CHEMBL1152407, “Identification of inhibitors of checkpoint kinase 1 through template screening” (J Med Chem, 2009)
